The entries are a selection whose mix differs from that of the whole data set. Activity calls are given as the source filed them. Cut-off read from the data, not from the text of the source: active = activation above about 11%; inactive = the rest.

By UniProt entry, the sequences of proteins in these tests, tags left out. Where a name states a change or a piece, a line headed by the entry shows the natural chain unless it says otherwise.
UniProt O95977: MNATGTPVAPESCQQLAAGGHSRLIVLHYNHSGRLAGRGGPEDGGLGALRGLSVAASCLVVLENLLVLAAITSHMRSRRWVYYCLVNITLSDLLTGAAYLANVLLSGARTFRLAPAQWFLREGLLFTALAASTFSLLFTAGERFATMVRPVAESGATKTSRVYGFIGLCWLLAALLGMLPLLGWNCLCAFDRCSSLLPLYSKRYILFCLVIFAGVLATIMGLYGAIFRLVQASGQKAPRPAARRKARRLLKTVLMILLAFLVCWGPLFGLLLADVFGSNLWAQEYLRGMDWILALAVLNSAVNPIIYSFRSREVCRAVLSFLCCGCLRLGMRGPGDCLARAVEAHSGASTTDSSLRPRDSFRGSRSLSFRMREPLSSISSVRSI

The experiment deals with Sphingosine 1-phosphate receptor 4 (Homo sapiens) (UniProt O95977). Kind of experiment: activators of human S1P4 receptor – cell-based, primary screen (AID 1509).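 Note: 0% = DMSO vehicle and 100% = reference agonist.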 The conditions noted are these: S1P4-expressing cell line, agonist reporter assay; at 4.98 µM; stronger effect = higher value. In general terms: A reporter such as luciferase makes a cellular process visible.
Turning to `c1nnnn1CCn1cnnn1`, the activation is inactive: -0.7%.
Regarding `CC(C)C(=O)NC(Sc1ccccc1)C(Cl)(Cl)Cl` (stereo not given), the activation was inactive: 3.29%.
In the case of `O=P(Nc1nccs1)(c1ccccc1)c1ccccc1`, the activation was inactive: -1.15%.
In the case of `CC(=O)Nc1ccc(Oc2c([N+](=O)[O-])cc([N+](=O)[O-])cc2[N+](=O)[O-])cc1`, the activation is inactive: 0.14%.
For `CC(=O)Nc1ccc([As](=O)(O)O)c(O)c1`, the activation was inactive: 0.44%.
Take `CC(C)(C)C(=O)NC(Sc1ccccc1)C(Cl)(Cl)Cl` (stereo not given): the activation is inactive: -0.01%.
The figure for `CCOc1ccc(C2=NCC(CBr)S2)cc1` (stereo not given) is inactive: -0.34%.
Consider `O=P1(Nc2nc3ccc(Cl)cc3s2)COc2ccccc2O1` (stereo not given), for which the activation was inactive: -0.23%.
On to `CN(C)C(=O)Oc1noc2ccccc12`, for which the activation is inactive: -1.84%.
Regarding `O=c1c2cc([N+](=O)[O-])ccc2[nH]c2c([N+](=O)[O-])cc([N+](=O)[O-])cc12`, the activation is inactive: -0.43%.
With `Cc1ccccc1OP(=O)(Nc1ccccn1)Oc1ccccc1C`, the activation was inactive: -1.24%.
Consider `Cc1ccc(OP(=O)(Nc2ccccn2)Oc2ccc(C)cc2)cc1`, for which the activation was inactive: -0.88%.
For `CC(=O)NC(SC(=S)N(CC(C)C)CC(C)C)C(Cl)(Cl)Cl` (stereo not given), the activation was inactive: -1.6%.
Turning to `COC(=O)c1cc2c(s1)N=C(c1ccccc1)N(C)P2(=O)N1CCOCC1` (stereo not given), the activation is inactive: -0.62%.
With `CCC(=O)N1C2C3N(C(=O)CC)C1C1N(C(=O)CC)C(C(N1C(=O)CC)N3C(=O)CC)N2C(=O)CC`, the activation is inactive: 1.98%.
In the case of `CCNC(=S)/N=C(\N)N[N+](=O)[O-]`, the activation is inactive: -1.06%.
As for `O=C(NC1CCS(=O)(=O)C1)NP(=S)(Oc1ccccc1)Oc1ccccc1` (stereo not given), the activation was inactive: 0.91%.
Regarding `CCOC(=O)NC(Sc1ccccc1)C(Cl)(Cl)Cl` (stereo not given), the activation was inactive: 1.79%.
As for `Cc1ccc(NP(=O)(Oc2cccc(C)c2)Oc2cccc(C)c2)nc1`, the activation is inactive: -0.55%.
As to `c1ccc(-c2nn[nH]n2)c(-c2nn[nH]n2)c1`, the activation was inactive: 0.34%.
